Only a part is listed here, and it is no random draw. Some of these compounds have results that are not shown, active ones among them. Activity calls are given as the source filed them.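 Rule for the calls: active = primary screen active and over 50% activation in each of two duplicate runs; inactive = the rest.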
tested on: transient receptor potential cation channel C4 beta (TRPC4), mouse; assay: activators of mouse TRPC4 channel, confirmation, cell-based, second round, Fluo4, HEK293 TRPC4beta/mu-opioid, 1 µM (AID 2461); conditions: Fluo4 calcium fluorescence, at 1 µM

SMILES	outcome
CN(C)c1ccc(C(=O)NCC2(N(C)C)CCCCC2)cc1	inactive
